Legend:
[1] = biological target: GDP-loaded KRAS4b (amino acids 1-169) G12C/C118S protein (Homo sapiens, UniProt P01116, C118S/G12C); assay: Covalent cysteine 12 modification by MALDI-TOF MS, GDP-loaded KRAS G12C; assay type: biochemical; settings: 15 minutes reaction time, compound 95 or later using 1 μM proteins
[2] = biological target: T1, GTP-loaded KRAS4b (amino acids 1-169) G12C/C118S protein (Homo sapiens, UniProt P01116, C118S/G12C); assay: Covalent cysteine 12 modification by MALDI-TOF MS, GTP-loaded KRAS G12C; assay type: biochemical; settings: 15 minutes reaction time, compound 95 or later using 1 μM proteins
T1 construct: KRAS4b (amino acids 1-169) G12C/C118S protein; made in house

[3] = biological target: GppNHp-loaded KRAS4b (amino acids 1-169) G12C/C118S protein (Homo sapiens, UniProt P01116, C118S/G12C); assay: Covalent cysteine 12 modification by MALDI-TOF MS, GppNHp-loaded KRAS G12C; assay type: biochemical; settings: 15 minutes reaction time, compound 95 or later using 1 μM proteins
[4] = biological target: Avi-KRAS G12C (1-169) GppNHp/RAF1 RBD-3xFLAG (52-151) (Homo sapiens, UniProt P01116, G12C); assay: biochemical; settings: Raf1-GppNHp-KRAS G12C disruption, Raf1 RBD-KRAS G12C-GppNHp disruption assay IC50

Row | GDP-KRAS G12C percent of modification [1] | GTP-KRAS G12C percent of modification [2] | GppNHp-KRAS G12C percent of modification [3] | IC50 [4] [nM] | Structure (SMILES)
1 | B (50≤percent of modification <70%) | D (percent of modification <10%) | D (percent of modification <10%) | > 20000 | C=CC(=O)N1C[C@H](C)N(c2nc(OC[C@@]34CCCN3C[C@H](F)C4)nc3c(F)c(-c4ccc(F)c5sc(NC(C)=O)c(C#N)c45)c(C(F)(F)F)cc23)C[C@H]1C [Compound 378]
2 | A (percent of modification ≥70%) | A (percent of modification ≥70%) | A (percent of modification ≥70%) | < 500 | C=CC(=O)N1CC[C@@H](N(C)c2nc(OC[C@@]34CCCN3C[C@H](F)C4)nc3c(F)c(-c4ccc(F)c5oc(N)nc45)c(C(F)(F)F)cc23)C1 [Compound 275]
3 | A (percent of modification ≥70%) | B (50≤percent of modification <70%) | A (percent of modification ≥70%) | < 500 | C=CC(=O)N1C[C@H](C)N(c2nc(OC[C@@H]3CC4(CC4)CN3C)nc3c(F)c(-c4ccc(F)c5sc(N)c(C#N)c45)c(C(F)(F)F)cc23)C[C@H]1C [Compound 410, 4-(4-((2S,5R)-4-acryloyl-2,5-dimethylpiperazin-1-yl)-8-fluoro-2-(((S)-5-methyl-5-azaspiro[2.4]heptan-6-yl)methoxy)-6-(trifluoromethyl)quinazolin-7-yl)-2-amino-7-fluorobenzo[b]thiophene-3-carbonitrile]
4 | D (percent of modification <10%) | D (percent of modification <10%) | D (percent of modification <10%) | 5000 to 20000 | C=CC(=O)N1C[C@H](C)N(c2nc(OC[C@@]34CCCN3C[C@H](F)C4)nc3c(F)c(-c4ccc(F)c5sc(N)c(C#N)c45)c(C(F)(F)F)cc23)C[C@H]1C (single isomer, unassigned) [Compound 314]
5 | A (percent of modification ≥70%) | A (percent of modification ≥70%) | A (percent of modification ≥70%) | < 500 | C=CC(=O)N1C[C@H](C)N(c2nc(OC[C@@]34CCCN3C[C@H](F)C4)nc3c(F)c(-c4ccc(F)c5sc(N)c(C#N)c45)c(C(F)(F)F)cc23)C[C@H]1C (single isomer, unassigned) [Compound 313]
6 | A (percent of modification ≥70%) | A (percent of modification ≥70%) | A (percent of modification ≥70%) | < 500 | C=CC(=O)N1C[C@H](F)[C@@H](N(C)c2nc(OC[C@@]34CCCN3C[C@H](F)C4)nc3c(F)c(-c4ccc(F)c5sc(N)c(C#N)c45)c(C(F)(F)F)cc23)C1 [Compound 327]
7 | A (percent of modification ≥70%) | A (percent of modification ≥70%) | A (percent of modification ≥70%) | < 500 | C=CC(=O)N1CC[C@@H](N(C)c2nc(OC[C@]34CCCN3C[C@H](OC)C4)nc3c(F)c(-c4ccc(F)c5sc(N)nc45)c(C(F)(F)F)cc23)C1 (atropisomer, axis not shown) [Compound 277]
8 | A (percent of modification ≥70%) | A (percent of modification ≥70%) | A (percent of modification ≥70%) | < 500 | C=CC(=O)N1C[C@@H](F)[C@@H](N(C)c2nc(OC[C@@]34CCCN3C[C@H](F)C4)nc3c(F)c(-c4ccc(F)c5sc(N)c(C#N)c45)ccc23)C1 [Compound 359]
9 | A (percent of modification ≥70%) | A (percent of modification ≥70%) | A (percent of modification ≥70%) | < 500 | C=CC(=O)N1CC[C@@H](N(CC)c2nc(OC[C@@]34CCCN3C[C@H](F)C4)nc3c(F)c(-c4ccc(F)c5sc(N)c(C#N)c45)c(C(F)(F)F)cc23)C1 [Compound 348, 4-(4-(((R)-1-acryloylpyrrolidin-3-yl)(ethyl)amino)-8-fluoro-2-(((2R,7aS)-2-fluorotetrahydro-1H-pyrrolizin-7a(5H)-yl)methoxy)-6-(trifluoromethyl)quinazolin-7-yl)-2-amino-7-fluorobenzo[b]thiophene-3-carbonitrile]
10 | A (percent of modification ≥70%) | A (percent of modification ≥70%) | A (percent of modification ≥70%) | < 500 | C=CC(=O)N1CCC(N(CC)c2nc(OC[C@@]34CCCN3C[C@H](F)C4)nc3cc(-c4ccc(F)c5sc(N)c(C#N)c45)ccc23)[C@H]1C (stereo partly drawn) [Compound 431]
11 | A (percent of modification ≥70%) | A (percent of modification ≥70%) | A (percent of modification ≥70%) | < 500 | C=CC(=O)N1CCC(N(C)c2nc(OC[C@@]34CCCN3C[C@H](F)C4)nc3c(C#N)c(-c4ccc(F)c5sc(N)c(C#N)c45)ccc23)[C@H]1COC (stereo partly drawn) [Compound 394]
12 | A (percent of modification ≥70%) | A (percent of modification ≥70%) | A (percent of modification ≥70%) | < 500 | C=CC(=O)N1CCC(N(C)c2nc(OC[C@@H]3CC4(CC4)CN3C)nc3c(F)c(-c4ccc(F)c5sc(N)c(C#N)c45)c(C(F)(F)F)cc23)[C@H]1COC (stereo partly drawn) [Compound 456]
13 | A (percent of modification ≥70%) | B (50≤percent of modification <70%) | A (percent of modification ≥70%) | < 500 | C=CC(=O)N1C[C@@H](F)[C@@H](N(C)c2nc(OC[C@@H]3C[C@@H](F)CN3C)nc3cc(-c4ccc(F)c5sc(N)c(C#N)c45)c(C(F)(F)F)cc23)C1 [Compound 356]
14 | A (percent of modification ≥70%) | A (percent of modification ≥70%) | A (percent of modification ≥70%) | < 500 | C=CC(=O)N1CCC(N(C)c2nc(OC[C@@]34CCCN3C[C@H](F)C4)nc3c(F)c(-c4ccc(F)c5sc(N)c(C#N)c45)ccc23)[C@H]1COC (stereo partly drawn) [Compound 402]
15 | A (percent of modification ≥70%) | B (50≤percent of modification <70%) | B (50≤percent of modification <70%) | < 500 | C=CC(=O)N1CCC(N(C)c2nc(OC[C@@H]3C[C@@H](OC)CN3C)nc3c(F)c(-c4ccc(F)c5sc(N)c(C#N)c45)c(C(F)(F)F)cc23)[C@H]1COC (stereo partly drawn) [Compound 454]
16 | A (percent of modification ≥70%) | A (percent of modification ≥70%) | A (percent of modification ≥70%) | < 500 | C=CC(=O)N1CCC(N(C)c2nc(OC[C@@H]3C[C@@H](OC)CN3C)nc3cc(-c4ccc(F)c5sc(N)c(C#N)c45)c(C#N)cc23)[C@H]1COC (stereo partly drawn) [Compound 465]
17 | A (percent of modification ≥70%) | A (percent of modification ≥70%) | A (percent of modification ≥70%) | < 500 | C=CC(=O)N1C[C@H](C)N(c2nc(OC[C@@]34CCCN3C[C@H](OC)C4)nc3c(F)c(-c4ccc(F)c5sc(N)c(C#N)c45)c(C(F)(F)F)cc23)C[C@H]1C [Compound 341]
18 | A (percent of modification ≥70%) | A (percent of modification ≥70%) | A (percent of modification ≥70%) | < 500 | C=CC(=O)N1C[C@@H](F)[C@@H](N(C)c2nc(OC[C@@]34CCCN3C[C@H](F)C4)nc3c(F)c(-c4ccc(F)c5sc(N)c(C#N)c45)c(C(F)(F)F)cc23)C1 [Compound 316]
19 | A (percent of modification ≥70%) | A (percent of modification ≥70%) | A (percent of modification ≥70%) | < 500 | C=CC(=O)N1C[C@@H](F)[C@@H](N(C)c2nc(OC[C@@]34CCCN3C[C@H](F)C4)nc3c(F)c(-c4ccc(F)c5sc(N)nc45)c(C(F)(F)F)cc23)C1 [Compound 279]
20 | A (percent of modification ≥70%) | D (percent of modification <10%) | C (10%≤percent of modification <50%) | 500 to 5000 | C=CC(=O)N1C[C@H](N(C)c2nc(OC[C@@]34CCCN3C[C@H](F)C4)nc3c(F)c(-c4ccc(F)c5sc(N)nc45)c(C(F)(F)F)cc23)C(C)(C)C1 [Compound 301]
21 | D (percent of modification <10%) | D (percent of modification <10%) | D (percent of modification <10%) | 500 to 5000 | C=CC(=O)N1C[C@H](C)N(c2nc(OC[C@@]34CCCN3C[C@H](F)C4)nc3c(F)c(-c4ccc(F)c5sc(N)nc45)c(C(F)(F)F)cc23)C[C@H]1C (atropisomer, axis not shown) [Compound 268]

— US12528818B2, “Compositions and methods for inhibition of RAS” (Leidos Biomedical Research, Inc., priority 2021, dated 2026)
